# Measured melting point values of organic chemicals

The melting point is given in degrees Celsius.

Listed for CNC(C)=CC(=O)OC: mp 61.5 °C.
Listed for Nn1c(-c2cccnc2)n[nH]c1=S: mp 191 °C.
Listed for CCOc1ccc(C(C)=O)cc1CCl: mp 81 °C.
Listed for Cc1nc(-c2ccc(Cl)cc2)cs1: mp 120 °C.
Listed for Cl.NCc1ccc(S(=O)(=O)N2CCOCC2)cc1: mp 122 °C.
Listed for CCOc1ccc(C(=O)NCC(=O)O)cc1: mp 155 °C.
Listed for N#Cc1ccc(OCCBr)cc1: mp 57 °C.
Listed for CCN(CC)Cc1ccc(C(=O)O)cc1: mp 155 °C.
Listed for Cc1n[nH]c(=S)n1C: mp 114 °C.
Listed for O=C/C=C/C=C/c1ccc([N+](=O)[O-])cc1: mp 106.9 °C.
Listed for NS(=O)(=O)c1ccc(C=CC(=O)O)cc1: mp 275 °C.
Listed for O=C(O)CC1Sc2ccc(C(F)(F)F)cc2NC1=O (centres undefined): mp 237 °C.
Listed for CCn1c(-c2cccs2)n[nH]c1=S: mp 104 °C.
Listed for N#CCC(=O)Nc1ccc(S(N)(=O)=O)cc1: mp 216 °C.
Listed for C[C@@H]1CCO[C@H]2Cn3cc(C(=O)NCc4ccc(F)cc4F)c(=O)c(O)c3C(=O)N12: mp 191.5 °C.
Listed for CCN(CC)S(=O)(=O)c1ccc2c(c1)CCN2: mp 81 °C.
Listed for Brc1cccc(Oc2ccc(Br)cc2Br)c1: mp 20 °C.
Listed for COc1cc2c(cc1OC)CC(=O)NCC2: mp 193 °C.
Listed for COC(=O)c1sc(Cl)nc1Cl: mp 55 °C.
Listed for CC(=O)O[C@H]1[C@H]2O[C@H]2C2=CC(=O)[C@]3(C[C@]2(C)[C@H]1C)O[C@]3(C)C=O: mp 156 °C.
Listed for O=C(O)c1cc2ccc(Cl)cc2[nH]1: mp 243 °C.
Listed for CN(C)S(=O)(=O)c1cccc(C(=O)O)c1: mp 148 °C.
Listed for Cc1ccc(NC(=O)C(=O)NN)cc1: mp 205 °C.
Listed for O=C(c1ccc(Cl)cc1)N1CCNCC1: mp 81 °C.
Listed for CC[C@@]12CCCN3CCc4c(n(c5ccccc45)C(=O)C1)[C@H]32: mp 174 °C.
Listed for CNNCc1ccccc1: mp 60 °C.
Listed for O=S(=O)(c1ccc2c(c1)CCN2)N1CCOCC1: mp 175 °C.
Listed for CN1CCN(c2ncc(Br)c(OCc3ccccc3)n2)CC1: mp 62.5 °C.
Listed for Nc1ccc(N2CCC(O)CC2)cc1: mp 172 °C.
Listed for CN1CCc2nc(N)sc2C1: mp 169 °C.
Listed for N#CCC(=O)NC1CCCCC1: mp 133 °C.
Listed for O=c1c(-c2ccccc2)coc2cc(O)ccc12: mp 202 °C.
Listed for CN(C)CCCNS(=O)(=O)c1ccc(Cl)c([N+](=O)[O-])c1: mp 99 °C.

Excerpt, the opening 2 entries:

CNC(C)=CC(=O)OC has mp 61.5 °C.
Nn1c(-c2cccnc2)n[nH]c1=S has mp 191 °C.

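The numbers are reported measurements, compiled and curated for the OPERA QSAR suite. One number stands for a compound and property, with no spread given. Method, purity and exact conditions of the single measurements are not given. A value may pool stereoisomers or salt forms, and the file does not say which form was measured. Unmarked limits or estimates from the upstream databases cannot be ruled out.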

Values as listed in the OPERA 2.9 repository of K. Mansouri.